# From PMC3691886
# B1: Z α1-antitrypsin [not stated] / itself (parent)
# chain: EDPQGDAAQKTDTSHHDQDHPTFNKITPNLAEFAFSLYRQLAHQSNSTNIFFSPVSIATAFAMLSLGTKADTHDEILEGLNFNLTEIPEAQIHEGFQELLRTLNQPDSQLQLTTGNGLFLSEGLKLVDKFLEDVKKLYHSEAFTVNFGDTEEAKKQINDYVEKGTQGKIVDLVKELDRDTVFALVNYIFFKGKWERPFEVKDTEEEDFHVDQVTTVKVPMMKRLGMFNIQHCKKLSSWVLLMKYLGNATAIFFLPDEGKLQHLENELTHDIITKFLENEDRRSASLHLPKLSITGTYDLKSVLGQLGITKVFSNGADLSGVTEEAPLKLSKAVHKAVLTIDKKGTEAAGAMFLEAIPMSIPPEVKFNKPFVFLMIEQNTKSPLFMGKVVNPTQK
# Variants of: B1
# Test: sandwich ELISA of intracellular polymers with polymer-specific 2C1 monoclonal antibody (COS-7 cell lysates)
# Conditions: COS-7 cells transiently transfected, serum-free medium for 24 h before lysis, n=4, parent: 1, read off a plot
row,Variant,ratio to parent
1,EDPQGDAAQKTDTSHHDQDHPTFNKITPNLAEFAFSLYRQLAHQSNSTNIFFSPVSIATAFAMLSLGTKADTHDEILEGLNFNLTEIPEAQIHEGFQELLRTLNQPDSQLQLTTGNGLFLSEGLKLVDKFLEDVKKLYHSEAFTVNFGDTEEAKKQINDYVEKGTQGKIVDLVKELDRDTVFALVNYIFFKGKWERPFEVKDTEEEDFHVDQVTTVKVPMMKRLGMFNIQHCKKLSSWVLLMKYLGNATAIFFLPDEGKLQHLENELTHDIITKFLENEDRRSASLHLPKLSITGTYDLKSVLGQLGITKVFSNGADLSGVTEEAPLKLSKAVHKAVLTIDKKGTEAAGAMFDEAIPMSIPPEVKFNKPFVFLMIEQNTKSPLFMGKVVNPTQK [chain 1 L353D],1.3
2,EDPQGDAAQKTDTSHHDQDHPTFNKITPNLAEFAFSLYRQLAHQSNSTNIFFSPVSIATAFAMLSLGTKADTHDEILEGLNFNLTEIPEAQIHEGFQELLRTLNQPDSQLQLTTGNGLFLSEGLKLVDKFLEDVKKLYHSEAFTVNFGDTEEAKKQINDYVEKGTQGKIVDLVKELDRDTVFALVNYIFFKGKWERPFEVKDTEEEDFHVDQVTTVKVPMMKRLGMFNIQHCKKLSSWVLLMKYLGNATAIFFLPDEGKLQHLENELTHDIITKFLENEDRRSASLHLPKLSITGTYDLKSVLGQLGITKVFSNGADLSGVTEEAPLKLSKAVHKAVLTIDKKGDEDAGAMFLEAIPMSIPPEVKFNKPFVFLMIEQNTKSPLFMGKVVNPTQK [chain 1 T345D A347D],0.08
3,EDPQGDAAQKTDTSHHDQDHPTFNKITPNLAEFAFSLYRQLAHQSNSTNIFFSPVSIATAFAMLSLGTKADTHDEILEGLNFNLTEIPEAQIHEGFQELLRTLNQPDSQLQLTTGNGLFLSEGLKLVDKFLEDVKKLYHSEAFTVNFGDTEEAKKQINDYVEKGTQGKIVDLVKELDRDTVFALVNYIFFKGKWERPFEVKDTEEEDFHVDQVTTVKVPMMKRLGMFNIQHCKKLSSWVLLMKYLGNATAIFFLPDEGKLQHLENELTHDIITKFLENEDRRSASLHLPKLSITGTYDLKSVLGQLGITKVFSNGADLSGVTEEAPLKLSKAVHKAVLTIDKKGTEAAGAMFDEDIPMSIPPEVKFNKPFVFLMIEQNTKSPLFMGKVVNPTQK [chain 1 L353D A355D],0.44

# The next lines start with the values.
row,ratio to parent,Variant
1,0.74,EDPQGDAAQKTDTSHHDQDHPTFNKITPNLAEFAFSLYRQLAHQSNSTNIFFSPVSIATAFAMLSLGTKADTHDEILEGLNFNLTEIPEAQIHEGFQELLRTLNQPDSQLQLTTGNGLFLSEGLKLVDKFLEDVKKLYHSEAFTVNFGDTEEAKKQINDYVEKGTQGKIVDLVKELDRDTVFALVNYIFFKGKWERPFEVKDTEEEDFHVDQVTTVKVPMMKRLGMFNIQHCKKLSSWVLLMKYLGNATAIFFLPDEGKLQHLENELTHDIITKFLENEDRRSASLHLPKLSITGTYDLKSVLGQLGITKVFSNGADLSGVTEEAPLKLSKAVHKAVLTIDKKGTEAADADFLEAIPMSIPPEVKFNKPFVFLMIEQNTKSPLFMGKVVNPTQK [chain 1 G349D M351D]
2,0.98,EDPQGDAAQKTDTSHHDQDHPTFNKITPNLAEFAFSLYRQLAHQSNSTNIFFSPVSIATAFAMLSLGTKADTHDEILEGLNFNLTEIPEAQIHEGFQELLRTLNQPDSQLQLTTGNGLFLSEGLKLVDKFLEDVKKLYHSEAFTVNFGDTEEAKKQINDYVEKGTQGKIVDLVKELDRDTVFALVNYIFFKGKWERPFEVKDTEEEDFHVDQVTTVKVPMMKRLGMFNIQHCKKLSSWVLLMKYLGNATAIFFLPDEGKLQHLENELTHDIITKFLENEDRRSASLHLPKLSITGTYDLKSVLGQLGITKVFSNGADLSGVTEEAPLKLSKAVHKAVLTIDKKGTEAAGAMFLEAIDMDIPPEVKFNKPFVFLMIEQNTKSPLFMGKVVNPTQK [chain 1 P357D S359D]
3,0.47,EDPQGDAAQKTDTSHHDQDHPTFNKITPNLAEFAFSLYRQLAHQSNSTNIFFSPVSIATAFAMLSLGTKADTHDEILEGLNFNLTEIPEAQIHEGFQELLRTLNQPDSQLQLTTGNGLFLSEGLKLVDKFLEDVKKLYHSEAFTVNFGDTEEAKKQINDYVEKGTQGKIVDLVKELDRDTVFALVNYIFFKGKWERPFEVKDTEEEDFHVDQVTTVKVPMMKRLGMFNIQHCKKLSSWVLLMKYLGNATAIFFLPDEGKLQHLENELTHDIITKFLENEDRRSASLHLPKLSITGTYDLKSVLGQLGITKVFSNGADLSGVTEEAPLKLSKAVHKAVLTIDKKGTEAAGAMFLEDIPMSIPPEVKFNKPFVFLMIEQNTKSPLFMGKVVNPTQK [chain 1 A355D]
